The text below walks through data of ChEMBL document CHEMBL1140740, “Discovery of benzisoxazoles as potent inhibitors of chaperone heat shock protein 90” (J Med Chem, 2008).

This experiment has as its target Heat shock protein HSP 90-alpha (Homo sapiens, UniProt P07900).

Compound `Oc1ccc2c(-c3cc(Br)c(O)cc3O)noc2c1` displayed an IC50 of 190 nM.
With `Oc1cc(O)c(-c2noc3ccc(NCCN4CCOCC4)cc23)cc1Cl` the figure was 30 nM.
